Reference: article PMC8338929, “Acetylation turns leucine into a drug by membrane transporter switching” (Scientific Reports, 2021)

Experiments:
[1] = N-acetyl-leucine metabolism in pooled mouse liver S9 fraction (LC-MS); type: in vitro ADME; conditions: mouse (CD1), 1.5 mg protein/mL, pH 7.4, 37 °C
[2] = N-acetyl-leucine metabolism in pooled human liver S9 fraction (LC-MS); type: in vitro ADME; conditions: both sexes, 1.5 mg protein/mL, pH 7.4, 37 °C

Km [1]: 69 µM
Km [2]: 216 µM
SMILES: [2H]C([2H])([2H])C([2H])(C([2H])([2H])[2H])C([2H])([2H])C([2H])(NC(C)=O)C(=O)O (racemic) [N-acetyl-DL-[^2H10]leucine]
